IC50 data for one molecule are collected here from patent US20230357271A1, “MACROCYCLIC COMPOUND” (Asahi Kasei Pharma Corporation, priority 2020, published 2023).

By UniProt entry, the sequences of proteins in these tests, tags left out.
UniProt Q9NWZ3, whole entry: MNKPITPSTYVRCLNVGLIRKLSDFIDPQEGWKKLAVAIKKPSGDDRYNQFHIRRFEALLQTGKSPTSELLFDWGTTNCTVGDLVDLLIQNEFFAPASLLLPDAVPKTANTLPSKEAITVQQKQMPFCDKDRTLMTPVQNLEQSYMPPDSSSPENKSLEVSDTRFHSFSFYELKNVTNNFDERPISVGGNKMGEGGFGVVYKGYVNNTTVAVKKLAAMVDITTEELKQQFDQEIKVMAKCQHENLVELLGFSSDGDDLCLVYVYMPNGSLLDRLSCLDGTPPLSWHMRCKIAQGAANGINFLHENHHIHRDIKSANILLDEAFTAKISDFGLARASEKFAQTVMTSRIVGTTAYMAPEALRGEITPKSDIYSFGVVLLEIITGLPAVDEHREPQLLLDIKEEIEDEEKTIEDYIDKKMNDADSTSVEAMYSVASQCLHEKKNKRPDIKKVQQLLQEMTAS

Assay [1] has as its system human acute monocytic leukemia cell strain THP-1. In words: LPS-stimulated TNFα production inhibition test using THP-1 cells. The following applies: read-out: IC50 ( µM), TNFα production inhibition, LPS 2.5 ng/mL, 4 hours, TNFα by HTRF. The method, then:
By the THP-1 assay, influence of a test compound on the TNFα production induced by LPS stimulation can be evaluated. The THP-1 cells (ATCC, Cat. TIB-202) were inoculated on a 96-well plate at a density of 1 × 10^5 cells/160 µL/well, a test compound was added in a volume of 20 µL, and the plate was incubated at 37° C. for 1 hour in a 5% CO2 incubator. Then, LPS in a volume of 20 µL (final concentration 2.5 ng/mL, Sigma, Cat. L2630) was added, and the plate was further incubated for 4 hours. After the incubation, the plate was centrifuged, and 100 µL of the supernatant was taken from each well, and used for evaluation of the amount of TNFα using HTRF (Cisbio, Cat. 62TNFPEB). In the measurement of the amount of TNFα, the supernatant was diluted twice with the medium, and then added to wells of a 384-well plate in a volume of 10 µL, then anti-TNFα-cryptate (5 µL), and anti-TNFα-XL665 (5 µL) were added, and the plate was left standing overnight. The fluorescence intensity ratio for the wavelengths of 620 and 665 nm (620 nm/665 nm) was measured with a microplate reader, and the amount of TNFα in the supernatant was calculated by using a calibration curve. […]

The target of a further assay is human IRAK-4 (Homo sapiens (Human), UniProt Q9NWZ3). In words: Measurement of human IRAK-4 inhibitory activity (TR-FRET). The following applies: read-out: IC50 (nM), IRAK-4 inhibitory activity; 1 nM IRAK-4, 0.5 µM peptide substrate, 10 µM ATP, 23° C., 30 minutes. Here is the method: For the measurement of the activity of the human IRAK-4 (Invitrogen, Cat. PV3362), phosphorylation of the IRAK-4 peptide substrate (biotin-KKKKRFSFKKSFKC) by the enzyme in the presence of 10 µM ATP (Sigma-Aldrich, Cat. A7699) was measured by the TR-FRET method. The enzymatic reaction was performed in a reaction buffer containing 50 mM HEPES (pH 7.2), 1 mM DTT, 0.1 mM Na3VO4, 5 mM MgCl2, 1 mM MnCl2, and 0.1% bovine serum albumin. For the measurement of the IRAK-4 inhibitory activity, a test compound was added to the reaction buffer containing 1 nM IRAK-4, 0.5 µM peptide substrate, and 10 µM ATP, and the mixture was incubated at 23° C. for 30 minutes. Then, a detection solution containing an antibody labeled with europium cryptate (0.3 µg/mL, the antibody was prepared by using the IRAK-4 peptide substrate as the antigen), streptavidin-XL665 (2 µg/mL, CisBio, Cat. 610SAXLB), 50 mM HEPES (pH 7.2), 0.1% BSA, 120 mM KF, and 66.7 mM EDTA (all the concentrations of the reagents are final concentrations) was added to terminate the reaction, and then the mixture was further incubated at 23° C. for 60 minutes. Fluorescence intensity was measured at wavelengths of 665 nm and 620 nm with a microplate reader, and the enzymatic activity was calculated as the ratio of fluorescence intensities at 665 nm and 620 nm (665 nm/620 nm). […]

Take `CCN1CC[C@H]2C[C@H]1C(=O)NCC(F)COc1c(-c3cnc(C)nc3)ccc3ncc(cc13)N2` (some centres unmarked): the figures for the IC50 (in assay [1]; on human IRAK-4) were 0.045 µM and 1.02 nM, respectively.
